Source: patent EP0039538A1, “Metal amine carboxylates and use thereof as preservatives” (BP Chemicals Limited, priority 1980, dated 1981)

Assay: Solubility in water / copper content of aqueous solution

## Copper ethylene diamine acetate [CEDA]
Aqueous solution as prepared in Example 1(a)
  copper content of CEDA solution: 10.75 by weight of copper
Dried blue solid of Example 1(b)
  solubility of the solid in water: soluble in an equal weight of water
